Molecular target: human FXa (Homo sapiens, UniProt P00742)
Conditions: Example 1, FIG. 1B; 0.3, 1 or 3 mg/kg orally
Procedure: A 0.5% MC solution (10 mL/kg or 15 mL/kg) was orally administered to a control group. […] The collected thrombus-attached stents were stored at −20° C. until protein quantification. […] Then, the anti-FXa activity in the plasma was measured.

Chains of the proteins cited; added tags and fusions are not shown. Residues count along the entry.
UniProt P00742, 41-179 partner limits assumed: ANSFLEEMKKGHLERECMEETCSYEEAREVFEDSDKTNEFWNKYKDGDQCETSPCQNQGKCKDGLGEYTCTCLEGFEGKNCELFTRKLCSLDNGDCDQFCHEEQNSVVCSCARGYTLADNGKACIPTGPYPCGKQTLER
UniProt P00742, 235-488 limits assumed: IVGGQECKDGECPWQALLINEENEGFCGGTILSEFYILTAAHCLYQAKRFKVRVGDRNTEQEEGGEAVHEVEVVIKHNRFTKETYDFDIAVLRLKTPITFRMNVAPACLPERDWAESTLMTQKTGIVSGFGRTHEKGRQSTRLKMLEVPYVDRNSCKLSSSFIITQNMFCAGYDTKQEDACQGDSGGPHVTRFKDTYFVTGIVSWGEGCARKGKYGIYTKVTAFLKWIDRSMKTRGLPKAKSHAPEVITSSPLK

SMILES: CN1CCc2nc(C(=O)N[C@@H]3C[C@@H](C(=O)N(C)C)CC[C@@H]3NC(=O)C(=O)Nc3ccc(Cl)cn3)sc2C1.Cc1ccc(S(=O)(=O)O)cc1 [edoxaban, N-(5-chloropyridin-2-yl)-N′-[(1S,2R,4S)-4-(dimethylcarbamoyl)-2-(5-methyl-4,5,6,7-tetrahydro[1,3]thiazolo[5,4-c]pyridine-2-carboxamido)cyclohexyl]oxamide]
- anti-FXa activity in the plasma after oral administration: dose-dependent (P<0.001) and significant
